Reference: ChEMBL document CHEMBL5725556, “Substituted aza-bicyclic imidazole derivatives useful TRPM8 receptor modulators” (2017)

Assay: Canine TRPM8 Functional Assay: HEK293 cells stably expressing canine TRPM8 were routinely grown as monolayers in Dulbecco's minimum essential medium supplemented with 10% FBS, 2 mM L-glutamine, 100 units/mL penicillin, 100 ug/mL streptomycin and 400 μg/mL G418. Cells were maintained in 5% CO2 at 37° C. At 24 hr prior to assay, cells were seeded in black wall, clear-base poly-D-lysine coated 384-well plates (BD Biosciences, NJ, USA) at a density of 5,000 cells per well in culture medium and grown overnight in 5% CO2 at 37° C. On assay day, growth media was removed, and cells were loaded with Calcium 3 Dye (Molecular Devices) for 35 min at 37° C., under 5% CO2 and then incubated for 25 min at room temperature and atmosphere. Subsequently, cells were tested for agonist-induced increases in intracellular Ca2+ levels using FLIPR or FDSS. Cells were treated with compounds of the formula (I) at varying concentrations and intracellular Ca2+ was measured for 5 min prior to the addition of icilin to each well to achieve a final concentration that produces an approximately 80% maximal response.
Assay type: cell-based

Structure (SMILES) | IC50
COc1nc(-c2ccccc2Cl)cc2nc(-c3cc(C(C)C)co3)[nH]c12 | 31.8 nM
COc1nc(-c2ccccc2Cl)cc2nc(-c3oc(Br)c(C(C)(C)C)c3C)[nH]c12 | 33.9 nM
